Reference: patent US8518710B2, “Photon reducing agents for fluorescence assays” (Life Technologies Corporation, priority 1997, dated 2013)

Test: Reduction of solution fluorescence by transition metal salts and complexes (Example 5)
Settings: 10 μM fluorophore, K-MOPS pH 7.15, ex 395 nm, em 460 nm

In the case of potassium ferricyanide (III), the “concentration range reducing coumarin fluorescence” value is reported as “low millimolar range”.
